The values below come from patent publication US20140004176A1, “DELIVERY OF TREATMENTS TRANSDERMALLY FOR FUNGAL INFECTIONS AND OTHER INDICATIONS” (Strategic Science & Techologies, priority 2010, published 2014).

The conditions of this data set: pH 7.

On to `CC(C)Cc1ccc(C(C)C(=O)[O-])cc1.[Na+]` (stereo not shown) [Ibuprofen sodium salt], for which the water solubility result is “water soluble”.
